Source: article PMC10447463, “Data-mining unveils structure–property–activity correlation of viral infectivity enhancing self-assembling peptides” (Nature Communications, 2023)

How the values were obtained:
[1] = Turbidity, derived count rate of scattered light; type: physicochemical; details: for Zeta Count Rate / kcps: derived count rate of scattered light
Method: (§1) 4 µL of 1 mg/mL peptide fibrils solution is added to a 20 µL, 50 µM ThT–solution in PBS. The mixture is incubated for 15 min at RT to allow binding of ThT dye with β–sheet rich structures. For reference PBS (4 µL) was added instead of peptide fibril solution. The samples were placed in black UV Star® 384 microliter well–plates (Greiner bio–one). Fluorescence spectra were recorded on an Infinite® M1000 PRO microplate reader (Tecan) at λem = 488 nm upon excitation at λex = 440 nm with 10 nm bandwidths and multiple reads per well (3×3). Measurements were repeated in triplicates and averaged with standard deviation. […] Zeta-Potential. For the determination of the surface charge of aggregated peptides zeta-potential measurements were conducted with a Zetasizer Nano ZS, Malvern Instruments. Unless stated otherwise the peptides were dissolved from DMSO (10 mg/mL) in PBS (pH 7.4) to concentration of 1 mg/mL and incubated for 1d at RT. Just before the measurement the 60 µL of the peptides were further diluted in 600 µL KCl (aq, 1 mM) in a 1 mL disposable folded capillary cells (DTS–1060, Zetasizer Nano series, Malvern). The zeta potential of the peptides was derived from the electrophoretic mobility based on the Smoluchowski formula. All measurements were averaged over two individually performed experiments and conducted in triplicates for each sample. Aggregate analysis. […] Furthermore, fluorescence microscopy was conducted by staining 1 µL preformed fibrils (1 mg/mL) with 9 µL ThT (50 µM). Brightfield microscopy was performed simultaneously to evaluate aggregation also for non ThT-active fibrils. The measurements were performed on a Leica DMi8 microscope with 10x air objective and equipped with a Leica MC170 HD camera with a filter setting λem = 527/30 nm upon excitation at λex = 480/40 nm) and processed with the Leica LASX software. To quantify size and number of microscopic aggregation of particles > 10 µm^2 at least 3 independently measured images were analyzed via the 3D object counter analysis tool of ImageJ, v 1.53f51. Sum–frequency generation. The SFG experiments were carried out with a femtosecond Ti: Sapphire amplified laser system (Spitfire Ace, Spectra–Physics, 800 nm, 40 fs, 1 kHz) with 5 W output power. We used 2 W to pump an optical parametric amplifier (TOPAS, light conversion) with a non–collinear difference frequency generation stage to generate broadband IR pulses. Another 1 W of the laser output passed through an etalon to generate narrowband visible pulses (10 cm^-1). The incident angles of the visible and IR beams were 36° and 41° with respect to the surface normal, respectively. The visible (13 µJ) and IR (5 µJ) pulses were overlapped spatially and temporally at the sample position. Subsequently, the generated SFG pulse was guided into a spectrograph (Acton SP 300i, Princeton Instruments), and detected with an EMCCD (Newton, Andor Technology). To avoid IR absorption of water vapor, we purged N2 for the measurement. All spectra were collected in the ssp (denoting s-, s- and p-polarized SFG, visible and IR, respectively) polarization combination. The spectra were normalized to the non–resonant signal taken from z–cut quartz after subtracting a background spectrum. […]
ways to determine turbidity of samples, this can be via transmittance and via scattering. Transmittance […]
as it is an easy and fast method.10,11 However, transmittance contributes not only from µm-sized aggregates but also nm-sized aggregates such as distinct fibrils, which makes hard to distinguish between fibril formation and micrometer sized aggregation. Although dynamic light scattering is a frequently applied method for determination of particle size, it cannot be conducted in solutions with anisotropic aggregates in micrometer size range, since the Stokes-Einstein relation is only applicable for homogeneous […] spherical particles.12 Further models describing scattering intensity and […]

[2] = type: physicochemical; set-up: key: 1= fibrils; 0= aggregates (micelle); 0.5 = aggregates and fibrils; -1 = nothing obersved
Method: For ATR FT–IR spectroscopy measurements, 200 µL of the respective 1 mg/mL PNF solution was lyophilized and the resulting powder used for measurement. All spectra were recorded on a Bruker Tensor 27 spectrometer with a diamond crystal as ATR element (PIKE MiracleTM, spectral resolution 2 cm^-1). Every sample was measured with 64 scans. Data were analyzed with OriginLab software and calculation of β–sheet content was conducted according to a previous report. TEM. For TEM measurements 5 µL of PNF fibrils (1 mg/mL) were placed on copper grids coated with carbon and formvar layer (300 mesh, Plano GmbH). […] 10 μL of the filtrate and non-filtered DMSO samples were submitted in a black UV Star® 384 microliter well–plates (Greiner bio–one) and 3 μL of the fluorescamine solution (10 mg/mL, DMSO) was added to measure the fluorescence enhancement. After 20 min of incubation at RT, fluorescence was recorded on an Infinite® M1000 PRO microplate reader (Tecan) at λem = 470 nm upon excitation at λex = 365 nm with 10 nm bandwidths and multiple reads per well (3×3). […] All values were calculated as n-fold fluorescence enhancement (DMSO only as a reference was set to 1). The conversion rate CR was defined according to the equation Eq. (3).3 CR=100−100×fluorescenceintensityfiltrate/fluorescenceintensityoriginal[%] […]

[3] = Zeta-potential measurement; type: physicochemical
Method: as §1

[4] = type: physicochemical
Method: 4 µL of 1 mg/mL peptide fibrils solution is added to a 20 µL, 50 µM ThT–solution in PBS. The mixture is incubated for 15 min at RT to allow binding of ThT dye with β–sheet rich structures. For reference PBS (4 µL) was added instead of peptide fibril solution. The samples were placed in black UV Star® 384 microliter well–plates (Greiner bio–one). Fluorescence spectra were recorded on an Infinite® M1000 PRO microplate reader (Tecan) at λem = 488 nm upon excitation at λex = 440 nm with 10 nm bandwidths and multiple reads per well (3×3). Measurements were repeated in triplicates and averaged with standard deviation. […] Zeta-Potential. For the determination of the surface charge of aggregated peptides zeta-potential measurements were conducted with a Zetasizer Nano ZS, Malvern Instruments. Unless stated otherwise the peptides were dissolved from DMSO (10 mg/mL) in PBS (pH 7.4) to concentration of 1 mg/mL and incubated for 1d at RT. Just before the measurement the 60 µL of the peptides were further diluted in 600 µL KCl (aq, 1 mM) in a 1 mL disposable folded capillary cells (DTS–1060, Zetasizer Nano series, Malvern). The zeta potential of the peptides was derived from the electrophoretic mobility based on the Smoluchowski formula. All measurements were averaged over two individually performed experiments and conducted in triplicates for each sample. Aggregate analysis. […] Furthermore, fluorescence microscopy was conducted by staining 1 µL preformed fibrils (1 mg/mL) with 9 µL ThT (50 µM). Brightfield microscopy was performed simultaneously to evaluate aggregation also for non ThT-active fibrils. The measurements were performed on a Leica DMi8 microscope with 10x air objective and equipped with a Leica MC170 HD camera with a filter setting λem = 527/30 nm upon excitation at λex = 480/40 nm) and processed with the Leica LASX software. To quantify size and number of microscopic aggregation of particles > 10 µm^2 at least 3 independently measured images were analyzed via the 3D object counter analysis tool of ImageJ, v 1.53f51. Sum–frequency generation. The SFG experiments were carried out with a femtosecond Ti: Sapphire amplified laser system (Spitfire Ace, Spectra–Physics, 800 nm, 40 fs, 1 kHz) with 5 W output power. We used 2 W to pump an optical parametric amplifier (TOPAS, light conversion) with a non–collinear difference frequency generation stage to generate broadband IR pulses. Another 1 W of the laser output passed through an etalon to generate narrowband visible pulses (10 cm^-1). The incident angles of the visible and IR beams were 36° and 41° with respect to the surface normal, respectively. The visible (13 µJ) and IR (5 µJ) pulses were overlapped spatially and temporally at the sample position. Subsequently, the generated SFG pulse was guided into a spectrograph (Acton SP 300i, Princeton Instruments), and detected with an EMCCD (Newton, Andor Technology). To avoid IR absorption of water vapor, we purged N2 for the measurement. All spectra were collected in the ssp (denoting s-, s- and p-polarized SFG, visible and IR, respectively) polarization combination. The spectra were normalized to the non–resonant signal taken from z–cut quartz after subtracting a background spectrum.
1. Remarks on experimental parameters and bioinformatic descriptors

[5] = Conversion rate (CR) assay with fluorescamine; type: physicochemical
Method: For ATR FT–IR spectroscopy measurements, 200 µL of the respective 1 mg/mL PNF solution was lyophilized and the resulting powder used for measurement. All spectra were recorded on a Bruker Tensor 27 spectrometer with a diamond crystal as ATR element (PIKE MiracleTM, spectral resolution 2 cm^-1). Every sample was measured with 64 scans. Data were analyzed with OriginLab software and calculation of β–sheet content was conducted according to a previous report. TEM. For TEM measurements 5 µL of PNF fibrils (1 mg/mL) were placed on copper grids coated with carbon and formvar layer (300 mesh, Plano GmbH). […] 10 μL of the filtrate and non-filtered DMSO samples were submitted in a black UV Star® 384 microliter well–plates (Greiner bio–one) and 3 μL of the fluorescamine solution (10 mg/mL, DMSO) was added to measure the fluorescence enhancement. After 20 min of incubation at RT, fluorescence was recorded on an Infinite® M1000 PRO microplate reader (Tecan) at λem = 470 nm upon excitation at λex = 365 nm with 10 nm bandwidths and multiple reads per well (3×3). […] All values were calculated as n-fold fluorescence enhancement (DMSO only as a reference was set to 1). The conversion rate CR was defined according to the equation Eq. (3).3 CR=100−100×fluorescenceintensityfiltrate/fluorescenceintensityoriginal[%]

## QCKAKAQANM [CK23]
[1]; category 1 / 0, no key given
  Zeta Count Rate Category: 1
[1]; category 1/0, no key printed
  Zeta Count Rate Category: 1
[1]; category 1 or 0 from count rate, key not given
  Zeta Count Rate Category: 1
[1]
  Zeta Count Rate / kcps: 204.1 kcps
[1]; mean, std deviation in next column
  Zeta Count Rate / kcps: 204.1 kcps
[1]; mean, std deviation in separate column
  Zeta Count Rate / kcps: 204.1 kcps
[2]
  TEM: 1= fibrils, 0= aggregates (micelle), 0.5 = aggregates and fibrils, -1 = nothing obersved, STD prep: 0.5
[3]
  Zeta Pot. / mV: -8.357 mV
  Zeta category ( +1 = if > 4 mV;-1 = if < -4 mV; 0 = -4mV to 4 mV): -1 (-1 = if < -4 mV)
[3]; category from zeta potential
  Zeta category ( +1 = if > 4 mV;-1 = if < -4 mV; 0 = -4mV to 4 mV): -1 (-1 = if < -4 mV)
[3]; mean, Std Zeta in next column
  Zeta Pot. / mV: -8.357 mV
[3]; mean, Std in separate column
  Zeta Pot. / mV: -8.357 mV
[3]; zeta potential of peptide, Fig S15 source data
  Zeta-pot. / mV: -8.357 mV
[4]; ThT fluorescence relative to blank (42.1851851851852 a.u.)
  Tht rel to blank (42.1851851851852): 1.382
[4]; ThT fluorescence relative to blank, blank = 42.1851851851852
  Tht rel to blank (42.1851851851852): 1.382
[4]; category 1 / 0
  Tht category (> 1.5 to blank = +): 0 (ThT-inactive (N-Fold <2))
[4]; category 1/0
  Tht category (> 1.5 to blank = +): 0 (ThT-inactive (N-Fold <2))
[4]; relative to blank 42.1851851851852 a.u.
  Tht rel to blank (42.1851851851852): 1.382
[5]
  Conversion Rate / %: 55.94%
[5]; fluorescamine assay
  Conversion Rate / %: 55.94%

Like-named read-outs stand apart in the source and are kept apart here.
